Several values for one entry are separate records, joined by “and”; a condition that tells them apart may be missing. Identical values can stand only once.
Tested on: brain H3 receptors
Assay: PET imaging of [18F]9 in monkey
Settings: rhesus monkey, in vivo

C[C@@H]1CCCN1CCc1cc2cc(C(=O)c3ccc(F)cc3)ccc2o1 [Compound 9, (R)-(2-(2-(2-methylpyrrolidin-1-yl)ethyl)benzofuran-5-yl)(4-fluorophenyl)methanone]
Mean Vt decrease: -58% and -52% and -54% and -53% and -49%
reduction of VT: 49—58%

Source: PMC3303611 (Journal of Medicinal Chemistry, 2012)
